Measurements published in patent US20200197439A1, “IMM[…] POLYOMAVIRUSES” (Atara Biotherapeutics, Inc., priority 2016, published 2020).

Test system: BKV specific T cells
Assay: Expansion of BKV specific T cells in the presence of IL-2 or IL-2 and IL-21
Assay type: cell-based, human
Settings: IL-2 alone compared to cells grown in presence of IL-2 and IL-21; FIG. 13
Experimental: BKV specific T cells were generated using the PBMCs from healthy donors. PBMCs were stimulated in vitro with respective BKV peptide pools at a concentration of 1 μg/ml and incubated at 37° C., 6.5% CO2 for an hour. The cells were then washed and split into two to be cultured in two conditions. A part of the cells was grown in the R10 medium (RPMI+10% FCS) containing 30 ng/ml of IL21 (Milteyni Biotech Ltd) in 24 well plates incubated at 37° C., 6.5% CO2. Another part of the cells was incubated with R10 medium without IL-21. The cultures grown in both conditions were supplemented with R10 medium containing recombinant interleukin-2 (Charles River Laboratory, NIH, USA) at 20 IU/ml on day 2 and then supplemented with media containing IL-2 every 3 days thereafter until day 20.
T cells in the cultures were counted and required amount of cells were used for an IFN-γ intracellular cytokine (ICS) assay while the remaining cells were cryopreserved in liquid nitrogen. Approximately 2×10^5 of CTLs were added to a 96 well V-bottom plate. Cells were stimulated with respective peptides at a concentration of 1 μg /ml in R10 medium containing Golgiplug Brefeldin A (BD Pharmingen, San Diego, Calif.) and incubated at 37° C., 6.5% CO2 for four hours. BKV specific T cells were recalled with both BKV peptide and its respective JCV variant and vice versa for JCV specific T cells. […]

IL-2: recombinant interleukin-2 culture supplement, 20 IU/ml
percentage of CD25+ cells in both CD8+ and CD4+ T cell populations: higher
